Publication PMC4338550 (Nature, 2014)

Target: rabbit ryanodine receptor RyR1 (rabbit, UniProt P11716)
Experiment: cryo-EM structure

binding result: binds
B1: glutathione-S-transferase (GST) fused FKBP12 (natural protein)
chain: not shown
